The subject of data set [1] is KB cells. Kind of data set: MTT cytotoxicity assay. The note with it: read-out: IC50 ± SD, anti-carcinogen alone. For orientation: Tetrazolium assays rely on reduction of a dye to a coloured formazan, in cell work by metabolically active cells.
Data set [2] relates to HL60 cells. The experiment in a line: MTT cytotoxicity assay. The conditions noted are these: HL60, inhibitor at 50 μM.
Data set [3] concerns HL60/adr (ABCC1) cells. Kind of data set: MTT cytotoxicity assay. The conditions noted are these: inhibitor at 50 μM.
Data set [4] relates to S1-M1-80 (ABCG2) cells. Kind of data set: MTT cytotoxicity assay.
The test system of data set [5] is S1 cells. The experiment in a line: MTT cytotoxicity assay.
The test system of data set [6] is MCF-7/adr (ABCB1) cells. Kind of data set: MTT cytotoxicity assay. The conditions noted are these: read-out: IC50 ± SD, anti-carcinogen alone.
The test system of data set [7] is KBv200 (ABCB1) cells. The experiment in a line: MTT cytotoxicity assay. The note with it: read-out: IC50 ± SD; KBv200, anti-carcinogen alone.
Data set [8] in a line: Liver histology (HE staining). The note with it: mice, paclitaxel 18 mg/kg alone, 3 consecutive days.
Data set [9] in a line: Serum ALT and AST after 3 consecutive days of treatment. The conditions noted are these: mice, paclitaxel i.v. 18 mg/kg alone.

Take `COc1cccc2c1C(=O)c1c(O)c3c(c(O)c1C2=O)C[C@@](O)(C(=O)CO)C[C@@H]3O[C@H]1C[C@H](N)[C@H](O)[C@H](C)O1`: the IC50 (as a rule, the concentration needed to halve the response being measured) in data set [1] was determined as 0.623 µM.

On to `CN(C)C(=O)CCSC(SCCC(=O)O)c1cccc(/C=C/c2ccc3ccc(Cl)cc3n2)c1` (centres unmarked), for which the “fold-enhancement of Doxorubicin cytotoxicity” value in data set [2] is given as 1.02 fold; in data set [3] it was 4.46 fold.

Consider `CC[C@@]1(O)C(=O)OCc2c1cc1n(c2=O)Cc2cc3c(CN(C)C)c(O)ccc3nc2-1`, for which the fold-enhancement in [4] (S1-M1-80, anti-carcinogen alone (absence of inhibitor, reference)) was found to be 1.00 fold; in [5] (S1, anti-carcinogen alone (absence of inhibitor, reference)), 1.00 fold. Moreover, the IC50 in data set [4] (read-out: IC50 ± SD, S1-M1-80, anti-carcinogen alone) was 9.52 µM; in data set [5] (read-out: IC50 ± SD, S1, anti-carcinogen alone) it was 0.855 µM.

In the case of cisplatin, the IC50 in [1] came to 0.328 µM; in data set [6], 11.3 µM; in data set [7], 2.37 µM.

Consider `CC(=O)O[C@H]1C(=O)[C@@]2(C)[C@H]([C@H](OC(=O)c3ccccc3)[C@]3(O)C[C@H](OC(=O)[C@H](O)[C@@H](NC(=O)c4ccccc4)c4ccccc4)C(C)=C1C3(C)C)[C@]1(OC(C)=O)CO[C@@H]1C[C@@H]2O`, for which the “histological change of liver” value in data set [8] was “mild congestion was observed in the central veins”. The AST in [9] was 87.8±10.46(0.884) U/L.

fumitremorgin C: the “fold-enhancement of Topotecan cytotoxicity” value in [4] (S1-M1-80, inhibitor at 0.5 μM) was 12.3 fold; in data set [5] (S1, inhibitor at 0.5 μM), 1.03 fold.

Source of the values: article PMC4669130.
